Measurements reported in ChEMBL document CHEMBL2034949, “Small Molecule Inhibitors of Regulator of G Protein Signalling (RGS) Proteins” (ACS Med Chem Lett, 2012).

Test: Selectivity ratio of IC50 for GSK3beta to IC50 for RGS4

CCCCn1c(=O)sn(CC)c1=O
Ratio IC50: 5000
